# Experimental data from patent publication US9597369B2, “Inhibitors of atypical protein kinase C and their use in treating hedgehog pathway-dependent cancers” (The Board of Trustees of the Leland Stanford Junior …, priority 2011, dated 2017).
# Key:
# Hh signaling = Hh signaling (gli1 mRNA, Gli target gene induction) in BCC cells; type: cell-based, mouse; settings: BCC cells with SAG, FIG. 3d
# Description: Drug treatments for cells were performed with myristoylated PSI (myr-SIYRRGARRWRKLY (SEQ ID NO:4)), Sant-1 (Tocris Bioscience), cyclopamine (Tocris Bioscience), SAG (EMD), and cyclohexamide (Sigma). Subconfluent ASZ001 cells were serum-starved and inhibitors added for 48 hrs prior to MTT assay and 24 hrs prior to visualize cilia and assay Gli target gene induction. Stability assays performed with ASZ001 preincubated with PSI for one hour before 20 ug/ml cyclohexamide addition at various time points.
# Aligned 36 bp raw reads with Bowtie using the NCBI37/mm9 reference genome. Differential expression analysis was performed on the 3′ exon with the Cufflinks suite using mouse RefSeq gene predictions as a reference transcriptome. Annotated coding transcripts were filtered for significant expression by a RPKM of 25 in at least one sample set. Transcripts that were two-fold or greater changed in drug-treated samples were hierarchically clustered using the Cluster program and visualized in Java Treeview. Transcripts were validated using Brilliant II SYBR Green qRT-PCR Master Mix Kit (Agilent Technologies) with primers listed in the following table. Two-tail p-value between our gene sets and other gene sets calculated using Fisher's Exact Test.
# Smo resistant cell lines = test: Cell proliferation of Smo-resistant BCC cell lines; type: cell-based, mouse; settings: lines resistant to high levels of Sant-1, FIG. 4e
# Description: Primary mouse dermal cells were isolated as previously described (Bershteyn, M., Atwood, S. X., Woo, W.-M., Li, M. & Oro, A. E. MIM and cortactin antagonism regulates ciliogenesis and hedgehog signaling. Dev. Cell 19, 270-283 (2010)). Dermal cells were grown in Amniomax media containing supplement and antibiotics (Invitrogen). ASZ001 cells were grown in 154CF media containing 2% chelated FBS, HKGS supplement, and antibiotics (Invitrogen). Keratinocytes (HPA Culture Collections) were grown in CnT-07 media containing supplement and 0.07 mM CaCl2 (CelINTec). Cells were sterum-starved between 24-48 hrs to induce ciliogenesis. MTT cell proliferation assay was performed using manufacturer's protocol from Invitrogen.
# Smo resistant cell lines were generated by treating BCC cells with increasingly higher concentrations of Sant-1 every passage for three weeks. Final resistant cell lines were grown in 60 uM Sant-1. Cyclopamine was used to inhibit Hh signaling to verify Smo resistance.
smiles,measurement,setting,value
CC1=C2C[C@H]3[C@@H](CC=C4C[C@@H](O)CC[C@@]43C)[C@@H]2CC[C@]12O[C@@H]1C[C@H](C)CN[C@H]1[C@H]2C [cyclopamine],SAG-induced activation of gli1 transcription,Hh signaling,can be outcompeted by SAG-mediated activation
same,cell proliferation of Smo-resistant BCC cell lines,Smo resistant cell lines,little effect on cell proliferation
